From publication PMC11514443 (Structure (London, England : 1993), 2019)
Square brackets hold non-standard residues; d marks the D form. Peptide text beside a SMILES is read from it. Lys(Me3) = C[N+](C)(C)CCCC[C@H](N)C(=O)O

By UniProt entry, the sequences of proteins in these tests, tags left out. Residues count along the entry.
UniProt Q14149, 401-455 E431A: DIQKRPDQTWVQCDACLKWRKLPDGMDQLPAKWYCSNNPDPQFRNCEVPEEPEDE

Biological target: MORC3-CW E431A mutant (Homo sapiens, UniProt Q14149, E431A)
Conditions: MORC3-CW E431A compared with WT MORC3-CW

With `CSCC[C@H](N)C(=O)N[C@@H](C)C(=O)N[C@@H](CCCNC(=N)N)C(=O)N[C@H](C(=O)N[C@@H](C)C(=O)N[C@@H](CCCNC(=N)N)C(=O)N[C@@H](CO)C(=O)N[C@@H](CCCC[N+](C)(C)C)C(=O)N[C@H](C(=O)O)C(C)C)[C@@H](C)O` [NS1K229me3] (H-MARTARS[Lys(Me3)]V-OH; N-terminus and C-terminus assumed) as the compound, how does the “effect of E431A mutation on binding” value read?
The value was “substantially decreased”.
